Experimental data as given in US9783573B2, “IAP antagonists” (BRISTOL-MYERS SQUIBB COMPANY, priority 2012, dated 2017).

Target: His-BIR2 (124-240/C202A/C213G) (Homo sapiens (Human), UniProt P98170, C202A/C213G)
Conditions: read-out: XIAP-BIR2 AlphaScreen IC50, Biotinylated SMAC peptide

CN[C@@H](C)C(=O)N[C@H](C(=O)N1Cc2cc(N(C(=O)C3(C(N)=O)CC3)[C@H]3C[C@@H](C(=O)N[C@@H]4CCCc5ccccc54)N(C(=O)[C@@H](NC(=O)[C@H](C)NC)C(C)(C)C)C3)ccc2C[C@H]1C(=O)N[C@@H]1CCCc2ccccc21)C(C)(C)C [Example 4, N-((S)-2-((S)-3,3-Dimethyl-2-((S)-2-(methylamino)propanamido)butanoyl)-3-(((R)-1,2,3,4-tetrahydronaphthalen-1-yl)carbamoyl)-1,2,3,4-tetrahydroisoquinolin-7-yl)-N-((3S,5S)-1-((S)-3,3-dimethyl-2-((S)-2-(methylamino)propanamido)butanoyl)-5-(((R)-1,2,3,4-tetrahydronaphthalen-1-yl)carbamoyl)pyrrolidin-3-yl)cyclopropane-1,1-dicarboxamide]
IC50: 150 nM

CN[C@@H](C)C(=O)N[C@H](C(=O)N1Cc2cc(N(C(=O)C3(C(N)=O)CCC3)[C@H]3C[C@@H](C(=O)N[C@@H]4CCCc5ccccc54)N(C(=O)[C@@H](NC(=O)[C@H](C)NC)C(C)(C)C)C3)ccc2C[C@H]1C(=O)N[C@@H]1CCCc2ccccc21)C(C)(C)C [Example 5, N-((S)-2-((S)-3,3-Dimethyl-2-((S)-2-(methylamino)propanamido)butanoyl)-3-(((R)-1,2,3,4-tetrahydronaphthalen-1-yl)carbamoyl)-1,2,3,4-tetrahydroisoquinolin-7-yl)-N-((3S,5S)-1-((S)-3,3-dimethyl-2-((S)-2-(methylamino)propanamido)butanoyl)-5-(((R)-1,2,3,4-tetrahydronaphthalen-1-yl)carbamoyl)pyrrolidin-3-yl)cyclobutane-1,1-dicarboxamide]
IC50: 100 nM

CN[C@@H](C)C(=O)N[C@H](C(=O)N1Cc2cc(NC(=O)C3CC4(C3)CC(C(=O)N[C@H]3C[C@@H](C(=O)N[C@@H]5CCCc6ccccc65)N(C(=O)[C@@H](NC(=O)[C@H](C)NC)C(C)(C)C)C3)C4)ccc2C[C@H]1C(=O)N[C@@H]1CCCc2ccccc21)C(C)(C)C (stereo partly drawn) [Example 7, N^2-((S)-2-((S)-3,3-Dimethyl-2-((S)-2-(methylamino)propanamido)butanoyl)-3-(((R)-1,2,3,4-tetrahydronaphthalen-1-yl)carbamoyl)-1,2,3,4-tetrahydroisoquinolin-7-yl)-N^6-((3S,5S)-1-((S)-3,3-dimethyl-2-((S)-2-(methylamino)propanamido)butanoyl)-5-(((R)-1,2,3,4-tetrahydronaphthalen-1-yl)carbamoyl)pyrrolidin-3-yl)spiro[3.3]heptane-2,6-dicarboxamide]
IC50: 120 nM

CN[C@@H](C)C(=O)N[C@H](C(=O)N1Cc2cc(NC(=O)CCc3ccc(C(=O)N[C@H]4C[C@@H](C(=O)N[C@@H]5CCCc6ccccc65)N(C(=O)[C@@H](NC(=O)[C@H](C)NC)C(C)(C)C)C4)cc3)ccc2C[C@H]1C(=O)N[C@@H]1CCCc2ccccc21)C(C)(C)C [Example 8, (S)-2-((S)-3,3-Dimethyl-2-((S)-2-(methylamino)propanamido)butanoyl)-7-(3-(4-(((3S,5S)-1-((S)-3,3-dimethyl-2-((S)-2-(methylamino)propanamido)butanoyl)-5-(((R)-1,2,3,4-tetrahydronaphthalen-1-yl)carbamoyl)pyrrolidin-3-yl)carbamoyl)phenyl)propanamido)-N-((R)-1,2,3,4-tetrahydronaphthalen-1-yl)-1,2,3,4-tetrahydroisoquinoline-3-carboxamide]
IC50: 99 nM

CN[C@@H](C)C(=O)N[C@H](C(=O)N1Cc2cc(NC(=O)c3ccc(CCC(=O)N[C@H]4C[C@@H](C(=O)N[C@@H]5CCCc6ccccc65)N(C(=O)[C@@H](NC(=O)[C@H](C)NC)C(C)(C)C)C4)cc3)ccc2C[C@H]1C(=O)N[C@@H]1CCCc2ccccc21)C(C)(C)C [Example 9, (S)-2-((S)-3,3-Dimethyl-2-((S)-2-(methylamino)propanamido)butanoyl)-7-(4-(3-(((3S,5S)-1-((S)-3,3-dimethyl-2-((S)-2-(methylamino)propanamido)butanoyl)-5-(((R)-1,2,3,4-tetrahydronaphthalen-1-yl)carbamoyl)pyrrolidin-3-yl)amino)-3-oxopropyl)benzamido)-N-((R)-1,2,3,4-tetrahydronaphthalen-1-yl)-1,2,3,4-tetrahydroisoquinoline-3-carboxamide]
IC50: 260 nM

CN[C@@H](C)C(=O)N[C@H](C(=O)N1Cc2cc(NC(=O)c3ccc(C(=O)Nc4ccc5c(c4)CN(C(=O)[C@@H](NC(=O)[C@H](C)NC)C(C)(C)C)[C@H](C(=O)N[C@H](C)c4ccccc4F)C5)cc3)ccc2C[C@H]1C(=O)N[C@H](C)c1ccccc1F)C(C)(C)C [Example 12, N^1,N^4-bis((S)-2-((S)-3,3-Dimethyl-2-((S)-2-(methylamino)propanamido)butanoyl)-3-(((R)-1-(2-fluorophenyl)ethyl)carbamoyl)-1,2,3,4-tetrahydroisoquinolin-7-yl)terephthalamide]
IC50: 2000 nM

CN[C@@H](C)C(=O)N[C@H](C(=O)N1Cc2cc(NC(=O)c3ccc(C(=O)Nc4ccc5c(c4)CN(C(=O)[C@@H](NC(=O)[C@H](C)NC)C(C)(C)C)[C@H](C(=O)N[C@@H](COC)c4ccccc4)C5)cc3)ccc2C[C@H]1C(=O)N[C@@H](COC)c1ccccc1)C(C)(C)C [Example 14, N^1,N^4-bis((S)-2-((S)-3,3-Dimethyl-2-((S)-2-(methylamino)propanamido)butanoyl)-3-(((R)-2-methoxy-1-phenylethyl)carbamoyl)-1,2,3,4-tetrahydroisoquinolin-7-yl)terephthalamide]
IC50: 2000 nM

CC[C@H](NC)C(=O)N[C@H](C(=O)N1Cc2cc(NC(=O)c3ccc(C(=O)N[C@H]4C[C@@H](C(=O)N[C@@H]5CCCc6ccccc65)N(C(=O)[C@@H](NC(=O)[C@H](C)NC)C(C)(C)C)C4)cc3)ccc2C[C@H]1C(=O)N[C@@H]1CCCc2ccccc21)C(C)(C)C [Example 15, N^1-((S)-2-((S)-3,3-Dimethyl-2-((S)-2-(methylamino)butanamido)butanoyl)-3-(((R)-1,2,3,4-tetrahydronaphthalen-1-yl)carbamoyl)-1,2,3,4-tetrahydroisoquinolin-7-yl)-N^4-((3S,5S)-1-((S)-3,3-dimethyl-2-((S)-2-(methylamino)propanamido)butanoyl)-5-(((R)-1,2,3,4-tetrahydronaphthalen-1-yl)carbamoyl)pyrrolidin-3-yl)terephthalamide]
IC50: 220 nM

CN[C@@H](C)C(=O)N[C@H](C(=O)N1Cc2cc(NC(=O)C(F)(F)C(F)(F)C(=O)N[C@H]3C[C@@H](C(=O)N[C@@H]4CCCc5ccccc54)N(C(=O)[C@@H](NC(=O)[C@H](C)NC)C(C)(C)C)C3)ccc2C[C@H]1C(=O)N[C@@H]1CCCc2ccccc21)C(C)(C)C [Example 17, N^1—((S)-2-((S)-3,3-Dimethyl-2-((S)-2-(methylamino)propanamido)butanoyl)-3-(((R)-1,2,3,4-tetrahydronaphthalen-1-yl)carbamoyl)-1,2,3,4-tetrahydroisoquinolin-7-yl)-N^4-((3S,5S)-1-((S)-3,3-dimethyl-2-((S)-2-(methylamino)propanamido)butanoyl)-5-(((R)-1,2,3,4-tetrahydronaphthalen-1-yl)carbamoyl)pyrrolidin-3-yl)-2,2,3,3-tetrafluorosuccinamide]
IC50: 110 nM
